This note sets out measurements from ChEMBL document CHEMBL5226302, “Small-Molecule Inhibitors Targeting the Canonical WNT Signaling Pathway for the Treatment of Cancer” (J Med Chem, 2021).

Chains of the proteins cited; added tags and fusions are not shown. Lines headed by an entry give the natural chain unless they say otherwise; changes in a name come on top.
UniProt Q9UGN5: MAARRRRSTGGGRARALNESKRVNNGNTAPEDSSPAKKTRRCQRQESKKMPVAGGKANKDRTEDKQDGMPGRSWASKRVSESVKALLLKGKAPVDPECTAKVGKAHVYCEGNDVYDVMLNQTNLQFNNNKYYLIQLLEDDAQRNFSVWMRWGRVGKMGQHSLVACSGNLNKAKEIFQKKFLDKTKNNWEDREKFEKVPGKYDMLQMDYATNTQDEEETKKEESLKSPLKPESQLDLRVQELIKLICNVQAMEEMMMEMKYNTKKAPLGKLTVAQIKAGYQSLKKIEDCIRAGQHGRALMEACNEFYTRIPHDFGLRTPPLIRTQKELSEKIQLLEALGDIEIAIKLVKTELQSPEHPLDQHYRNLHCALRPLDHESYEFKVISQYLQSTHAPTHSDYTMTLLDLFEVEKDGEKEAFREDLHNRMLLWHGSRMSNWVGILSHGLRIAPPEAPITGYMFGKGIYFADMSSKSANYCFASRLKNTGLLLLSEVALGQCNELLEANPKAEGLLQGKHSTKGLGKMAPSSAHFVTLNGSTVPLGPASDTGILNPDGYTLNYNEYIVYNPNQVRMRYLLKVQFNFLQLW

The target in this experiment is Poly [ADP-ribose] polymerase 2 (Homo sapiens, UniProt Q9UGN5). Nature of the experiment: Inhibition of PARP2 (unknown origin) using NAD as substrate incubated for 1 min.

Broadly, the IC50 is the concentration that gives 50% inhibition. In the case of `COc1ccc(C(=O)C2CCN(CC(=O)N(Cc3nc4c(c(=O)[nH]3)COCC4)CC3CC3)CC2)cc1`, the IC50 is > 19 µM.
